This is a selection; strong and weak results do not stand in their true shares. Some results for these compounds are left out of this collection, so the calls shown say nothing about other tests. The source made the active and inactive calls.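 The calls were made as follows: active = viability at or under a set limit, the compound median less 4 SD (cut at about 6% in these data); inactive = the rest.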
assay: primary screen for suppressors of beta-catenin knockout HCT116 cell growth, colon tumor, human (AID 818); conditions: CellTiter-Glo, 60 h, at 10 µM, stronger effect = lower value;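 also: 0% = Hyamine 1622 control at 20 µM and 100% = untreated cell control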

| SMILES | viability |
| --- | --- |
| O=C(OC1CN2CCC1CC2)C(CO)(c1ccccc1)c1ccccc1 (stereo not given) | inactive: 94.9% |
| CN(C)c1cccc(C(=O)NCC2(N(C)C)CCCCC2)c1 | inactive: 80.4% |
| CC(C)N1C(=O)CC2(CCN(CCOC(=O)C(O)(c3ccccc3)c3ccccc3)CC2)C1=O | inactive: 80.1% |
| CN(C)C1CCCC1OC(=O)C(O)(c1ccccc1)c1ccccc1 (stereo not given) | inactive: 90.5% |
| CCN1CCCC(OC(=O)C2(O)c3ccccc3C=Cc3ccccc32)C1 (stereo not given) | inactive: 83.2% |
